Assay results: US20120020915A1, “Compounds and Methods for Treating Cancer and Diseases of the Central Nervous System” (QUEENS UNIVERSITY AT KINGSTON, priority 2007, published 2012)

Legend:
HO-1 (rat spleen) = target: T1, HO-1 (rat spleen) (Rattus norvegicus, UniProt P06762); test: HO enzymatic activity, rat spleen microsomal fraction (CO formation from methemalbumin); format: biochemical; details: mean ± SD of replicate experiments
T1 construct: Spleen microsomes were used as a source of HO-1; from tissue; host or cells: spleen microsomal fraction of adult male Sprague-Dawley rats
T1 sequence (P06762 1-289): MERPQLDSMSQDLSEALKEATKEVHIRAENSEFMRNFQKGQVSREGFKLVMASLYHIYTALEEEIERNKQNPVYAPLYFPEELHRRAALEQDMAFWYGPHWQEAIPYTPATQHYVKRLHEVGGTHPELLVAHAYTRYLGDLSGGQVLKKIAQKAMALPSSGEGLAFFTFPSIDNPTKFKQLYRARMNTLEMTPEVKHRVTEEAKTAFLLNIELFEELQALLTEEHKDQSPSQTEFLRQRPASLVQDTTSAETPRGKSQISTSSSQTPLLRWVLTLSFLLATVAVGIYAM
Protocol: (§1) Incubations for HO activity analysis were done under conditions for which the rate of CO formation (pmol CO×min^−1×mg protein^−1) was linear with respect to time and microsomal protein concentration. Briefly, reaction mixtures (150 μL) consisting of 100 mM phosphate buffer (pH 7.4), 50 μM methemalbumin, and 1 mg/mL protein were pre-incubated with the inhibitors at final concentrations ranging from 0.1-100 μM for 10 minutes at 37° C. Reactions were initiated by adding NADPH at a final concentration of 1 mM and incubations were performed for an additional 15 minutes at 37° C.
(§2) Incubations for HO activity analysis were done under conditions for which the rate of CO formation (pmol CO/mg protein/minute) was linear with respect to time and microsomal protein concentration. […] Reactions were stopped by instantly freezing the reaction mixture on pulverized dry ice and CO formation was measured by gas chromatography using a TA 3000R Process Gas Analyzer (Trace Analytical/Ametek, Newark, Del., USA).
(§3) The values on the abscissa represent the decimal logarithm of the inhibitor's concentration (in μM), whereas the values of the activity on the ordinate are expressed as a percentage of the control experiments without inhibitor. […]

HO-2 (rat brain) = target: T2, HO-2 (rat brain) (Rattus norvegicus, UniProt P23711); test: HO enzymatic activity, rat brain microsomal fraction (CO formation from methemalbumin); format: biochemical; details: IC50 HO-2 (rat brain)/μM), mean ± SD of replicate experiments
T2 construct: brain microsomes were used as a source of HO-2; from tissue; host or cells: brain microsomal fraction of adult male Sprague-Dawley rats
T2 sequence (P23711 1-315): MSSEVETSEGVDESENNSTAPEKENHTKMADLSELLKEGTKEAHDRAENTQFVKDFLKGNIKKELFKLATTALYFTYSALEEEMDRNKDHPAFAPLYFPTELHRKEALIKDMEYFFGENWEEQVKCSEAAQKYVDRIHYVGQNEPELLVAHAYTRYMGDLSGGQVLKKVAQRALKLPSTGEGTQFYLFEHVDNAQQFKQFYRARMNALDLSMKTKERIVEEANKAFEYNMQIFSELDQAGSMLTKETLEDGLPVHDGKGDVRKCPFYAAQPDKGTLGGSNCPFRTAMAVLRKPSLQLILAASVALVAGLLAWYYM
Protocol: as §1, §2, §3

Row | Compound | IC50 (HO-1 (rat spleen)) | IC50 (HO-2 (rat brain))
1 | Cl.OC(CCc1ccc(I)cc1)Cn1ccnc1 (racemic) [QC-74, (±)-1-(1H-Imidazol-1-yl)-4-(4-iodophenyl)-2-butanol hydrochloride] | 0.06 ± 0.03 µM | –
2 | Nc1cccc(SC[C@H]2CO[C@](CCc3ccc(Cl)cc3)(Cn3ccnc3)O2)c1 [QC-20, (2S,4R)-2-[2-(4-chlorophenyl)ethyl]-2-[(1H-imidazol-1-yl)methyl]-4-[{(3-aminophenyl)thio}methyl]-1,3-dioxolane hydrochloride] | – | 24 ± 4 µM

Counter-ions that a name gives are not always drawn.
